Results on 5 compounds are retold here after patent US8030354B2, “Substituted biphenyl GPR40 modulators” (Amgen Inc., priority 2007, dated 2011).

Chains of the proteins cited; added tags and fusions are not shown.
UniProt O14842, whole entry: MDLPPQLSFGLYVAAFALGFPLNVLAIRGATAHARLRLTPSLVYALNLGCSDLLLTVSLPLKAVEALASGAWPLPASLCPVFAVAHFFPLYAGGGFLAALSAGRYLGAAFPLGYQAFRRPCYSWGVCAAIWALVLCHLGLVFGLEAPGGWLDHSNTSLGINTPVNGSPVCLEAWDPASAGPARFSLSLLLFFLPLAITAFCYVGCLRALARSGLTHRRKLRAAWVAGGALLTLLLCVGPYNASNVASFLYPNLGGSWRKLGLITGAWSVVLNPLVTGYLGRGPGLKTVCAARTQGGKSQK

A word on the EC50: it is the concentration needed to bring the measured effect to its halfway point.

For assay [1], the target named is T1, GPR40 (Homo sapiens, UniProt O14842). Briefly: Cell-based aequorin assay (CHO cells stably expressing GPR40 and aequorin). Particulars: read-out: Aequorin EC50; activation of human GPR40, CHO cells, 0.01% HSA.
Assay [2] deals with T1, GPR40. The assay is described as follows: Inositol phosphate accumulation assay (A9_GPR40 cells). The class given is cell-based. The conditions noted are these: read-out: IP3 EC50, 1 hour.

Consider `COc1ccc(F)c(-c2ccc(COc3cccc(C(C)CC(=O)O)c3)cc2C(C)(C)C)c1` (single isomer, unassigned) [Example 42, (3R)-3-(3-(((2-(1,1-Dimethylethyl)-2′-fluoro-5′-(methyloxy)-1,1′-biphenyl-4-yl)methyl)oxy)phenyl)butanoic acid or (3S)-3-(3-(((2-(1,1-dimethylethyl)-2′-fluoro-5′-(methyloxy)-1,1′-biphenyl-4-yl)methyl)oxy)phenyl)butanoic acid], for which the EC50 on GPR40 [1] and at GPR40 [2] was 1000 to 10000 nM throughout.

Take `COc1ccc(F)c(-c2ccc(COc3cccc(C(CC(=O)O)C4CC4)c3)cc2C2CCCC2C)c1` (single isomer, unassigned): the results for the EC50 on GPR40 [1] and on GPR40 [2] were 100 to 1000 nM and less than 10 nM, respectively.

Consider `C=CCC(CC(=O)O)c1cccc(OCc2ccc(-c3cc(OC)ccc3F)c(C(C)(C)C)c2)c1` (stereo not drawn), for which the EC50 on GPR40 [1] lay in the range of 1000 to 10000 nM.

In the case of `C=C(C)C(CC(=O)O)c1cccc(OCc2ccc(-c3cc(OC)ccc3F)c(C(C)(C)C)c2)c1` (stereo not drawn), the EC50 on GPR40 [1] and on GPR40 [2] was 100 to 1000 nM each time.

For the compound `CCCC(CC(=O)O)c1cccc(OCc2ccc(-c3cc(OC)ccc3F)c(C(C)(C)C)c2)c1` (stereo not drawn), the EC50 on GPR40 [1] and on GPR40 [2] was 100 to 1000 nM in each case.
